Results taken from PubChem BioAssay (NCI).
Where “and” joins values, the source holds several entries; their conditions need not be identical. Identical values can stand only once. The entries are a selection whose mix differs from that of the whole data set.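 Each cell line was grown in a 96-well plate and treated with one concentration of compound for 48 hours. Values below 10 were considered active.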 Calls of active or inactive are those of the source.

What was measured:
Assay in all cases: NCI-60 one-dose screen, 48 h (100 = growth as untreated, 0 = no growth, -100 = all killed)
Details in all cases: 10 µM
SK-MEL-2 melanoma = system: SK-MEL-2 melanoma
EKVX NSCLC = system: EKVX NSCLC
SN12C renal = system: SN12C renal
UO-31 renal = system: UO-31 renal
TK-10 renal = system: TK-10 renal
ACHN renal = system: ACHN renal
A498 renal = system: A498 renal
HL-60(TB) leukemia = system: HL-60(TB) leukemia
CCRF-CEM leukemia = system: CCRF-CEM leukemia
MOLT-4 leukemia = system: MOLT-4 leukemia
SR leukemia = system: SR leukemia
RPMI-8226 leukemia = system: RPMI-8226 leukemia
OVCAR-8 ovarian = system: OVCAR-8 ovarian
OVCAR-5 ovarian = system: OVCAR-5 ovarian
OVCAR-4 ovarian = system: OVCAR-4 ovarian
SK-OV-3 ovarian = system: SK-OV-3 ovarian
IGROV1 ovarian = system: IGROV1 ovarian
OVCAR-3 ovarian = system: OVCAR-3 ovarian
HS 578T breast = system: HS 578T breast
CAKI-1 renal = system: CAKI-1 renal

Measured: growth

CC(C)N1CCN(CCOC(=O)C(O)(c2ccccc2)c2ccccc2)CC1
inactive: SK-MEL-2 melanoma 104% | EKVX NSCLC 94.7% | SN12C renal 105% | UO-31 renal 90.9% | TK-10 renal 95.6% | ACHN renal 98.1% | A498 renal 95.9% | HL-60(TB) leukemia 93.1% | CCRF-CEM leukemia 97.2% | MOLT-4 leukemia 88.2% | SR leukemia 92.1% | RPMI-8226 leukemia 98.8% | OVCAR-8 ovarian 99.9% | OVCAR-5 ovarian 103% | OVCAR-4 ovarian 116% | SK-OV-3 ovarian 85.6% | IGROV1 ovarian 111% | OVCAR-3 ovarian 103% | HS 578T breast 98.4%

CCN(CC)CCS
inactive: SK-MEL-2 melanoma 102% | SN12C renal 105% | UO-31 renal 84.4% | TK-10 renal 98.6% | ACHN renal 102% | A498 renal 102% | HL-60(TB) leukemia 105% | MOLT-4 leukemia 95.8% | SR leukemia 89.6% | RPMI-8226 leukemia 96.6% | OVCAR-8 ovarian 99.5% | OVCAR-5 ovarian 96% | OVCAR-4 ovarian 115% | SK-OV-3 ovarian 105% | IGROV1 ovarian 93.2% | OVCAR-3 ovarian 96.3%

O=[N+]([O-])N(CCN(CC(Br)([N+](=O)[O-])[N+](=O)[O-])[N+](=O)[O-])CC(Br)([N+](=O)[O-])[N+](=O)[O-]
inactive: SK-MEL-2 melanoma 101% | SN12C renal 102% | UO-31 renal 78% | TK-10 renal 95.9% | ACHN renal 99.5% | CAKI-1 renal 98.8% | A498 renal 98% | HL-60(TB) leukemia 88.1% | CCRF-CEM leukemia 94% | MOLT-4 leukemia 92.7% | SR leukemia 94.5% | RPMI-8226 leukemia 101% | OVCAR-8 ovarian 97.1% | OVCAR-5 ovarian 101% | OVCAR-4 ovarian 101% | SK-OV-3 ovarian 101% | IGROV1 ovarian 114% | OVCAR-3 ovarian 102% | HS 578T breast 102%

CCN(C)CC.O=[N+]([O-])c1cc([N+](=O)[O-])c(O)c([N+](=O)[O-])c1
inactive: SK-MEL-2 melanoma 105% | EKVX NSCLC 94.1% | SN12C renal 102% | UO-31 renal 90% | TK-10 renal 101% | A498 renal 92.3% | HL-60(TB) leukemia 96.1% | CCRF-CEM leukemia 95.1% | MOLT-4 leukemia 91% | SR leukemia 106% | RPMI-8226 leukemia 97.2% | OVCAR-8 ovarian 115% | OVCAR-5 ovarian 105% | OVCAR-4 ovarian 104% | SK-OV-3 ovarian 94.1% | IGROV1 ovarian 98.9% | OVCAR-3 ovarian 111% | HS 578T breast 96.7%

COc1ccccc1-c1ccccn1.O=[N+]([O-])c1cc([N+](=O)[O-])c(O)c([N+](=O)[O-])c1
inactive: SK-MEL-2 melanoma 111% | SN12C renal 99.4% | UO-31 renal 84.6% | TK-10 renal 95.7% | ACHN renal 95.7% | CAKI-1 renal 84% | A498 renal 106% | HL-60(TB) leukemia 105% | MOLT-4 leukemia 103% | SR leukemia 91% | RPMI-8226 leukemia 100% | OVCAR-8 ovarian 97.4% | OVCAR-5 ovarian 108% | OVCAR-4 ovarian 114% | SK-OV-3 ovarian 110% | IGROV1 ovarian 103% | OVCAR-3 ovarian 117% | HS 578T breast 110%

Nc1cc([N+](=O)[O-])cc([N+](=O)[O-])c1O
inactive: SK-MEL-2 melanoma 100% and 97.6% | EKVX NSCLC 100% and 98% | SN12C renal 97% and 98.5% | UO-31 renal 93.4% and 101% | TK-10 renal 101% and 93.7% | ACHN renal 99.6% and 113% | A498 renal 131% and 108% | HL-60(TB) leukemia 94% and 96.8% | CCRF-CEM leukemia 103% and 96.7% | MOLT-4 leukemia 104% and 96.1% | SR leukemia 97% and 102% | RPMI-8226 leukemia 111% and 95.2% | OVCAR-8 ovarian 104% and 101% | OVCAR-5 ovarian 96.3% and 101% | OVCAR-4 ovarian 103% and 106% | SK-OV-3 ovarian 107% and 102% | IGROV1 ovarian 123% and 110% | OVCAR-3 ovarian 110% and 102% | HS 578T breast 171% and 107%

O=[N+]([O-])c1cc([N+](=O)[O-])c(C(F)(F)F)c([N+](=O)[O-])c1O
inactive: SK-MEL-2 melanoma 111% | EKVX NSCLC 91.1% | SN12C renal 91.7% | TK-10 renal 94.1% | ACHN renal 96.7% | CAKI-1 renal 87.3% | A498 renal 108% | HL-60(TB) leukemia 105% | CCRF-CEM leukemia 96.6% | MOLT-4 leukemia 93.9% | RPMI-8226 leukemia 101% | OVCAR-8 ovarian 101% | OVCAR-5 ovarian 94.9% | OVCAR-4 ovarian 98.2% | SK-OV-3 ovarian 109% | IGROV1 ovarian 104% | OVCAR-3 ovarian 108% | HS 578T breast 88%

CCOC(=O)Nc1c([N+](=O)[O-])cc([N+](=O)[O-])cc1[N+](=O)[O-]
inactive: SK-MEL-2 melanoma 104% | EKVX NSCLC 101% | SN12C renal 89.6% | UO-31 renal 88.5% | TK-10 renal 124% | ACHN renal 106% | A498 renal 98.2% | HL-60(TB) leukemia 95.8% | CCRF-CEM leukemia 72.7% | SR leukemia 78% | RPMI-8226 leukemia 83.9% | OVCAR-8 ovarian 100% | OVCAR-5 ovarian 139% | OVCAR-4 ovarian 67.8% | SK-OV-3 ovarian 117% | IGROV1 ovarian 106% | OVCAR-3 ovarian 94.1% | HS 578T breast 92.7%

CCN(CC)CCOC(=O)C(O)(c1cc(C)cc(C)c1)c1cc(C)cc(C)c1
inactive: EKVX NSCLC 99.7% | SN12C renal 90.9% | UO-31 renal 85.6% | TK-10 renal 89.8% | ACHN renal 101% | CAKI-1 renal 98.8% | A498 renal 51.4% | HL-60(TB) leukemia 101% | CCRF-CEM leukemia 102% | MOLT-4 leukemia 100% | SR leukemia 97.6% | RPMI-8226 leukemia 98.1% | OVCAR-8 ovarian 89.2% | OVCAR-5 ovarian 106% | OVCAR-4 ovarian 109% | SK-OV-3 ovarian 93.1% | IGROV1 ovarian 97.6% | OVCAR-3 ovarian 108% | HS 578T breast 88.4%

CCOC(=O)CSc1c(N)c(C)nn1C.O=[N+]([O-])c1cc([N+](=O)[O-])c(O)c([N+](=O)[O-])c1
inactive: SK-MEL-2 melanoma 92.7% | SN12C renal 102% | UO-31 renal 87% | TK-10 renal 106% | ACHN renal 103% | CAKI-1 renal 112% | A498 renal 112% | HL-60(TB) leukemia 97.1% | CCRF-CEM leukemia 101% | MOLT-4 leukemia 99.2% | SR leukemia 114% | RPMI-8226 leukemia 99.6% | OVCAR-8 ovarian 116% | OVCAR-5 ovarian 109% | OVCAR-4 ovarian 103% | SK-OV-3 ovarian 102% | OVCAR-3 ovarian 110% | HS 578T breast 115%

CP(=O)(OCCCCl)N(CCCl)CCCl (configuration not stated)
inactive: SK-MEL-2 melanoma 130% | SN12C renal 101% | UO-31 renal 95.1% | TK-10 renal 153% | ACHN renal 97.6% | CAKI-1 renal 92% | A498 renal 108% | HL-60(TB) leukemia 88.3% | MOLT-4 leukemia 96.1% | SR leukemia 99.2% | RPMI-8226 leukemia 98.5% | OVCAR-8 ovarian 102% | OVCAR-5 ovarian 106% | OVCAR-4 ovarian 105% | SK-OV-3 ovarian 111% | IGROV1 ovarian 105% | OVCAR-3 ovarian 114%

O=C1N([N+](=O)[O-])CCN1[N+](=O)[O-]
inactive: SK-MEL-2 melanoma 113% | SN12C renal 98.9% | UO-31 renal 83.7% | TK-10 renal 110% | ACHN renal 99.1% | CAKI-1 renal 103% | A498 renal 91.8% | HL-60(TB) leukemia 115% | CCRF-CEM leukemia 100% | MOLT-4 leukemia 108% | SR leukemia 113% | RPMI-8226 leukemia 100% | OVCAR-8 ovarian 100% | OVCAR-5 ovarian 97.3% | OVCAR-4 ovarian 103% | SK-OV-3 ovarian 103% | IGROV1 ovarian 120% | OVCAR-3 ovarian 112% | HS 578T breast 107%

CCCOP(=S)(Cl)OCCC
inactive: SK-MEL-2 melanoma 100% | SN12C renal 94.9% | UO-31 renal 94.9% | TK-10 renal 101% | ACHN renal 101% | CAKI-1 renal 93% | A498 renal 80.9% | HL-60(TB) leukemia 101% | CCRF-CEM leukemia 93.6% | MOLT-4 leukemia 98.8% | SR leukemia 98% | RPMI-8226 leukemia 102% | OVCAR-8 ovarian 97.9% | OVCAR-5 ovarian 99.7% | OVCAR-4 ovarian 101% | SK-OV-3 ovarian 114% | IGROV1 ovarian 112% | OVCAR-3 ovarian 107% | HS 578T breast 105%

Clc1ccccc1SCCBr
inactive: SK-MEL-2 melanoma 106% | EKVX NSCLC 107% | UO-31 renal 88.9% | TK-10 renal 104% | ACHN renal 114% | CAKI-1 renal 95% | A498 renal 97.1% | CCRF-CEM leukemia 100% | MOLT-4 leukemia 112% | SR leukemia 95.2% | RPMI-8226 leukemia 99.9% | OVCAR-8 ovarian 101% | OVCAR-5 ovarian 108% | OVCAR-4 ovarian 102% | SK-OV-3 ovarian 109% | IGROV1 ovarian 106% | OVCAR-3 ovarian 98.6% | HS 578T breast 106%

CP(=S)(Cl)N(CCCl)CCCl (configuration not stated)
inactive: SK-MEL-2 melanoma 96.5% | SN12C renal 102% | UO-31 renal 91.4% | TK-10 renal 104% | ACHN renal 96.5% | CAKI-1 renal 99.9% | A498 renal 106% | HL-60(TB) leukemia 92.2% | MOLT-4 leukemia 93.7% | SR leukemia 103% | RPMI-8226 leukemia 93.9% | OVCAR-8 ovarian 98% | OVCAR-5 ovarian 91.2% | OVCAR-4 ovarian 98.5% | SK-OV-3 ovarian 111% | IGROV1 ovarian 92.3% | OVCAR-3 ovarian 128%
